# Results: PubChem BioAssay AID2216 (Broad Institute, 2009)
# The list shows a part of the results, in another mix than the full data. Inconclusive results are not listed. Calls of active or inactive are those of the source.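 How the source made its calls: active means more than half of the replicate wells show a fall in the fluorescence ratio signal beyond about 16% (limit read from the data, passing the limit was not always enough); inconclusive means exactly half of the replicate wells pass the set limit; inactive means fewer than half of replicates pass the limit.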
# System: Ran GTPase (GTP-bound) - importin-beta complex
# Assay: disruptors of Ran-importin-beta complex formation – biochemical, FRET, CFP-Ran, YFP-importin-beta, homogeneous, primary screen (AID 2216);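 further: 0% = DMSO wells and 100% = Ran loaded with GDP instead of GTP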
# Settings: cell-free CFP-Ran/YFP-importin-beta FRET ratio; active compounds read high; concentration not given here
row,Compound,inhibition
1,CCC1=CC2Cc3nc4ccc(Cl)cc4c(N)c3C(C1)C2 (configuration not stated),inactive: 3.47%
2,O=P1(Nc2ccccn2)COc2ccccc2OC1,inactive: -1.22%
3,O=[As](O)(c1cccs1)c1cccs1,inactive: 0.0855%
4,Cc1ccc(OCC(=O)OC2CN3CCC2CC3)cc1 (configuration not stated),inactive: 1.02%
5,CCCOc1ccc(NP(C)(=O)Oc2ccc(Cl)cc2)cc1 (configuration not stated),inactive: 1.08%
6,CP(=O)(Nc1ccc(SC(F)(F)F)cc1)Oc1ccccc1 (configuration not stated),inactive: 7.14%
7,Nc1cccc([As](=O)(O)c2ccccc2)c1,inactive: -0.351%
8,CN1CCCCC1COC(=O)C1(O)c2ccccc2CCc2ccccc21 (configuration not stated),inactive: -2.06%
9,COc1ccccc1OP(C)(=O)Nc1c(C)cccc1C (configuration not stated),inactive: 1.41%
10,O=P1(Nc2ncccn2)COc2ccccc2OC1,inactive: -0.633%
11,O=C(/C=C/c1ccccc1)OC1CN2CCC1CC2 (configuration not stated),inactive: 4.66%
12,CCOC(=O)C(CC)C1=NC(C)(C)Cc2ccccc21.O=[N+]([O-])c1cc([N+](=O)[O-])c(O)c([N+](=O)[O-])c1 (configuration not stated),inactive: 0.0666%
13,CN(C)C1(CNC(=O)c2ccc(S(C)(=O)=O)cc2)CCCCC1,inactive: -0.957%
14,O=[N+]([O-])c1cc([N+](=O)[O-])c(Nc2nnnn2CCO)c([N+](=O)[O-])c1,inactive: -6.12%
15,COc1cc(C2NCCC3(OCCO3)C2(C)C)cc(OC)c1OC.O=[N+]([O-])c1cc([N+](=O)[O-])c(O)c([N+](=O)[O-])c1 (configuration not stated),inactive: 5.21%
16,CC1CCC(C(C)C)C(OP(=O)(Nc2ccccn2)c2ccccc2)C1 (configuration not stated),inactive: -1.39%
17,Cc1nn(-c2ccccc2)c2c1P(=O)(N1CCOCC1)N(C)C(c1ccccc1)=N2 (configuration not stated),inactive: 1.91%
18,CC1=NCCc2c1[nH]c1ccccc21.O=[N+]([O-])c1cc([N+](=O)[O-])c(O)c([N+](=O)[O-])c1,inactive: -8.84%
19,CN(C(=O)Cc1ccc(Cl)c(Cl)c1)[C@H]1CC[C@@]2(CCCO2)C[C@@H]1N1CCCC1,inactive: 1.24%
20,O=[N+]([O-])c1ccc2c(c1)nnn2O,inactive: 3.56%
21,CN(C)C(=O)c1cc([N+](=O)[O-])cc2c1-c1c(cc([N+](=O)[O-])cc1[N+](=O)[O-])C2=O,inactive: 1.02%
22,CCOP1(=S)c2c(C)nn(CCC#N)c2N=C(c2ccc(F)cc2)N1C (configuration not stated),inactive: 3.18%
23,CN(C(=O)Cc1ccccc1)[C@@H]1CC[C@]2(CCCO2)C[C@H]1N1CCCC1,inactive: -2.23%
24,N#CCCN(C(=O)COC(=O)C(O)(c1ccccc1)c1ccccc1)c1ccc(F)cc1,inactive: 4.31%
25,NC(=O)Nc1ccc([As](=O)(O)O)cc1,inactive: 1.71%

row,Compound,inhibition
1,O=C(O)COc1ccc([As](=O)(O)O)cc1[N+](=O)[O-],inactive: -1.36%
2,Nc1ccccc1[As](=O)(O)c1ccccc1,inactive: -3.39%
3,CS(=O)(=O)c1cc([N+](=O)[O-])c2no[n+]([O-])c2c1,inactive: -59.1%
4,O=P(Nc1nccs1)(Oc1ccccc1)Oc1ccccc1,inactive: 1.5%
5,O=P(Nc1nccs1)(c1ccccc1)c1nc2ccccc2s1 (configuration not stated),inactive: -5.01%
6,O=C(O)c1cccc(Nc2c([N+](=O)[O-])cc([N+](=O)[O-])cc2[N+](=O)[O-])c1,inactive: -2.77%
7,CCOP1(=S)c2c(C)nn(CCC#N)c2N=C(c2ccccc2F)N1C (configuration not stated),inactive: 2.6%
8,CCOP(=O)(Nc1cccc2ccccc12)OCC,inactive: 0.512%
9,Cc1ccc(C)c(NP(C)(=O)Oc2ccccc2)c1 (configuration not stated),inactive: -2.72%
10,CCCOP(=S)(Nc1nc(N)cc(=O)[nH]1)OCCC,inactive: -3.23%
11,Nc1cccc2c([As](=O)(O)O)cccc12,inactive: 1.88%
12,Cc1ccc(NCCc2c([N+](=O)[O-])cc([N+](=O)[O-])cc2[N+](=O)[O-])cc1,inactive: -0.287%
13,Cc1cc(C)cc(OP(C)(=O)Nc2ccccn2)c1 (configuration not stated),inactive: -0.46%
14,CP(=O)(Nc1cccc(Br)c1)Oc1ccccc1 (configuration not stated),inactive: 0.885%
15,CCOC(=O)c1ccc(NP(C)(=O)Oc2cc(C)cc(C)c2)cc1 (configuration not stated),inactive: -1.54%
16,Cc1cccc(OCC(=O)OC2CN3CCC2CC3)c1 (configuration not stated),inactive: 1.2%
17,O=[As](O)(c1cccc(O)c1)c1cccc(O)c1,inactive: 3.52%
18,CS(=O)(=O)c1ccc(Cl)c(NC(=O)COC(=O)C(O)(c2ccccc2)c2ccccc2)c1,inactive: -3.84%
19,COc1ccccc1OP(C)(=O)Nc1cccc(Br)c1 (configuration not stated),inactive: 0.821%
20,O=[As](O)(O)c1cccnc1,inactive: 1.16%
21,COc1cc(C(=O)NCC2(N3CCOCC3)CCCCC2)cc(Cl)c1OC(C)C,inactive: -1.77%
22,O=C(OC1CN2CCC1CC2)c1ccc(Cl)cc1 (configuration not stated),inactive: 4.38%
23,COc1ccc(N/C(=N/P(=O)(N2CCOCC2)N2CCOCC2)N2CCOCC2)cc1,inactive: 0.915%
24,COc1cc(I)ccc1[As](=O)(O)O,inactive: -1.46%
25,COc1ccc2nc(NP(=O)(c3ccccc3)c3ccccc3)sc2c1,inactive: -0.608%

row,Compound,inhibition
1,CCN(CC)CCCOC(=O)C(O)(c1ccccc1)c1ccccc1,inactive: -0.728%
2,Cc1cc(=O)[nH]c(N[N+](=O)[O-])n1,inactive: 7.6%
3,O=C(OC1CN2CCC1CC2)C12CC3CC(CC(C3)C1)C2 (configuration not stated),inactive: -0.521%
4,Cc1c2c(nc3ccccc13)SC(C(Cl)Cl)C2 (configuration not stated),inactive: -1.54%
5,Cc1cc(C)cc(OP(C)(N)=O)c1 (configuration not stated),inactive: 0.156%
6,COc1ccc(OP(C)(=O)Nc2cccc(F)c2)cc1 (configuration not stated),inactive: -1.34%
7,O=[N+]([O-])c1cc([N+](=O)[O-])c(-c2ccn[nH]2)s1,inactive: 2.71%
8,CC(C)NC(=O)NP(=O)(Oc1ccccc1)Oc1ccccc1,inactive: 0.871%
9,CCN(CC)C(=S)SC(NC=O)C(Cl)(Cl)Cl (configuration not stated),inactive: 0.68%
10,CC(C)c1ccc(OP(=O)(Nc2ccccn2)Oc2ccccc2F)cc1 (configuration not stated),inactive: 1.88%
11,Cc1ccc(NP(C)(=O)Oc2ccccc2)c(C)c1 (configuration not stated),inactive: 2.9%
12,COc1ccccc1OP(C)(=O)Nc1ccc(C)cc1 (configuration not stated),inactive: 5.68%
13,ClCCSc1nnc(-c2cccnc2)o1,inactive: 1.89%
14,CCOC(=O)c1ccc(NP(C)(=O)Oc2ccccc2)cc1 (configuration not stated),inactive: 2.43%
15,O=[N+]([O-])c1ccc2c(c1)C=Nc1ccccc1O2,inactive: -3.14%
16,Cc1ccc2nc3c(c(C)c2c1)CC(C(Cl)Cl)S3 (configuration not stated),inactive: 0.957%
17,Cc1cccc(C)c1OP(C)(N)=O (configuration not stated),inactive: -0.444%
18,Cc1ccc(OP(=O)(Nc2ccc([N+](=O)[O-])cn2)Oc2ccc(C)cc2)cc1,inactive: 1.25%
19,CC(C)(C)c1ccc(OP(C)(=O)Nc2ccc(SC(F)(F)F)cc2)cc1 (configuration not stated),inactive: 6.23%
20,C[As](=O)(O)c1cccc(C(=O)O)c1,inactive: 2.33%
21,O=[As](O)(c1ccc(O)cc1)c1ccccc1O,inactive: 0.712%
22,O=[N+]([O-])c1cc([N+](=O)[O-])c(Nc2cccnc2)c([N+](=O)[O-])c1,inactive: -4.38%
23,O=[N+]([O-])c1ccc(Nc2ccc(Oc3ccc([N+](=O)[O-])cc3[N+](=O)[O-])cc2)c([N+](=O)[O-])c1,inactive: -1.68%
24,CP(=O)(Nc1ccccc1Br)Oc1ccccc1 (configuration not stated),inactive: 6.98%
25,COc1ccccc1OP(C)(=O)Nc1ccccc1 (configuration not stated),inactive: 0.601%

row,Compound,inhibition
1,Cc1cc(SC(NC=O)C(Cl)(Cl)Cl)ncn1 (configuration not stated),inactive: 2.99%
2,O=P(Nc1ccccn1)(c1cccc2ccccc12)c1cccc2ccccc12,inactive: -3.4%
3,CCOC(=O)Nc1cccc([As](=O)(O)O)c1,inactive: 0.387%
4,CP(=S)(Nn1cnnc1)Oc1ccccc1 (configuration not stated),inactive: -1.48%
5,Cc1cc(SC(NC(=O)c2ccccc2)C(Cl)(Cl)Cl)nc(C(C)C)n1 (configuration not stated),inactive: 6.54%
6,CCCCOc1ccc(C(=O)NCC2(N3CCCCC3)CCCCC2)cc1OC,inactive: -0.0148%
7,CCOC(=O)Nc1ccc([As](=O)(O)O)c(O)c1,inactive: 7.2%
8,CCC(C)N(CC(C)C)C(=S)SC(NC(C)=O)C(Cl)(Cl)Cl (configuration not stated),inactive: 8.95%
9,O=[N+]([O-])c1cc([N+](=O)[O-])c(O)c([N+](=O)[O-])c1.c1ccc(Oc2ccncc2)cc1,inactive: -0.441%
10,CCOC(=O)c1ccc(NP(C)(=O)Oc2ccc(OC)cc2)cc1 (configuration not stated),inactive: 1.44%
11,CCOC(=O)c1ccc(NC(=O)C(C)(CCl)SC)cc1 (configuration not stated),inactive: 1.06%
12,CCOP(C)(=S)SCC(=O)NC(C)C(=O)O (configuration not stated),inactive: 3.1%
13,O=C(OC1CN2CCC1CC2)c1cccc([N+](=O)[O-])c1 (configuration not stated),inactive: 2.66%
14,O=C(Nc1ccncc1[N+](=O)[O-])c1ccc([N+](=O)[O-])cc1[N+](=O)[O-],inactive: 0.136%
15,Cc1cc(C)cc(OP(C)(=O)Nc2ccc(SC(F)(F)F)cc2)c1 (configuration not stated),inactive: -0.685%
16,CP(=O)(NC(=O)Nc1ccccc1)Oc1ccccc1 (configuration not stated),inactive: 1.36%
17,O=C(COc1ccccc1)OC1CN2CCC1CC2 (configuration not stated),inactive: -3.31%
18,CCc1ccc(OP(C)(=O)N2CCN(c3ccc([N+](=O)[O-])cc3)CC2)cc1 (configuration not stated),inactive: -2.03%
19,CP(=O)(Oc1ccccc1)OC(c1ccccc1)C(F)(F)F (configuration not stated),inactive: -2.69%
20,COP1(=S)c2c(C)nn(CCC#N)c2N=C(c2ccc(F)cc2)N1C (configuration not stated),inactive: 2.03%
21,CP(=O)(Nc1ccc(SC(F)(F)F)cc1)Oc1ccc(Cl)cc1 (configuration not stated),inactive: 1.19%
22,Cc1cccc(C)c1OP(C)(=O)Nc1ccc(SC(F)(F)F)cc1 (configuration not stated),inactive: -1.89%
